Counter-ions that a name gives are not always drawn.
Target: T1, human glycine transporter type 1 (Gly-T1) (Homo sapiens, UniProt P48067)
T1 construct: JAR) cells endogenously expressing human glycine transporter type 1 (Gly-T1); endogenous in cells; host or cells: JAR (human placental choriocarcinoma) cells
T1 sequence (P48067 1-706): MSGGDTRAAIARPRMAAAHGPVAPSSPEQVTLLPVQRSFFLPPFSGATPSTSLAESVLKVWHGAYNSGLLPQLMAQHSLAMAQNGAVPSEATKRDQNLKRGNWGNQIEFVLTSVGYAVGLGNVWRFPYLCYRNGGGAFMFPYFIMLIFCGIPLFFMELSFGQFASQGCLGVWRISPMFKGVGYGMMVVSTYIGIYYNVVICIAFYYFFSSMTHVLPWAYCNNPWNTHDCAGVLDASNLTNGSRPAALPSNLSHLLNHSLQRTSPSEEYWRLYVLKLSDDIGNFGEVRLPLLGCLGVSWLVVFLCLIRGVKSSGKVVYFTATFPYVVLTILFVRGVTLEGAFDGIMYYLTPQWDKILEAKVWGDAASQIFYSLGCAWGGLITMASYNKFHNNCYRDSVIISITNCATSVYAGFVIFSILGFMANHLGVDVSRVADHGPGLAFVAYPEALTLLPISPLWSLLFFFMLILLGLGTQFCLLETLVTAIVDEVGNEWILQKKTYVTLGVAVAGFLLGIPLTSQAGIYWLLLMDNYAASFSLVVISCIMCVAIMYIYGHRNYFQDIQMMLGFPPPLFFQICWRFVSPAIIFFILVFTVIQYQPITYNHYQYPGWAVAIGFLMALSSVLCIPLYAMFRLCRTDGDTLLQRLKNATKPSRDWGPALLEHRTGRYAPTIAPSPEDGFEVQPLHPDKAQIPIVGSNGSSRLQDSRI
Experiment: Glycine Transporter 1 (GlyT1) uptake assay, [14C] glycine uptake in JAR cells
Type: cell-based
Settings: approximate IC50; inhibition of [14C] glycine (5 μM) uptake, JAR cells endogenously expressing human Gly-T1
Description: This cell-based assay measures the ability of test compounds to inhibit the uptake of glycine by the glycine transporter type 1. Human placental choriocarcinoma (JAR) cells endogenously expressing human glycine transporter type 1 (Gly-T1) were used for this assay. […] Cells were plated at a density of 4×10^4 cells/well and grown at 37° C. in a humidified atmosphere of 5% CO2 for 24 h.
Culture medium was removed from Cytostar plate and JAR cells were incubated with 30 μl of Uptake buffer (120 mM NaCl, 2 mM KCl, 1 mM CaCl2, 1 mM MgCl2, 10 mM Hepes, 5 mM alanine, pH 7.5) with or without compound for 5 min. […] After incubation at room temperature for the desired time usually 1-2 h, sealed 96-well Cytostar plates were counted on a TopCount (Packard).
IC50 curves were generated from the raw data collected from the TopCount and fitted with a four-parameter logistic equation using in-house data analysis tool, Activity Base.

`O=C(O)CN1CCN(C(c2ccc(Cl)cc2)c2ccc(Cl)cc2)CC1` [Cpd 88, 2-(4-(bis(4-chlorophenyl)methyl)piperazin-1-yl)acetic acid dihydrochloride salt] showed an IC50 of 134 nM.

Source: patent US9663476B2, “Glycine transporter-1 inhibitors” (AMGEN INC., priority 2006, dated 2017)
